## AlphaSeq binding of Ab-14 light chain variants to a spike HR2 peptide

Binding partner: SARS-CoV-2 spike HR2 peptide, sequence PDVDLGDISGINAS.

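The starting antibody came from a phage panning campaign against this peptide. The variants were designed computationally from a first round of random CDR variants and then made and measured. Group labels follow the data file (Ctrl: baseline library sampled from a position-specific scoring matrix, with some repeated check sequences; En: ensemble of fine-tuned language models; GP: Gaussian process model; HC: hill climbing; Gen: genetic algorithm; Gibbs: Gibbs sampling; a sequence that several methods proposed may carry one label only). The scFvs were displayed on barcoded MATa yeast, the peptide on MATalpha yeast. The frequency of each diploid, read from paired DNA barcodes, reflects how well the two displayed proteins bind. Scores were corrected for input abundance and mapped to Kd with protein pairs of known affinity run in the same pool. There are six technical replicates.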

The variants keep the heavy chain, the linker and the frameworks of Ab-14 (scFv order VH, a 15-residue (Gly4Ser)3 linker, VL).
VH: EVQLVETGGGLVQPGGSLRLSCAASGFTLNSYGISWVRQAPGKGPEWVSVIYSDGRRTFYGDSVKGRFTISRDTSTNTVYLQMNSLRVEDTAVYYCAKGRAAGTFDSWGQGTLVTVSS
VL: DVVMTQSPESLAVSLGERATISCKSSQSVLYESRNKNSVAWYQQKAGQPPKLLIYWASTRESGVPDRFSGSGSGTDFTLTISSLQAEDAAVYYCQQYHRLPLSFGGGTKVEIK

Variants are written as CDR1, CDR2 and CDR3 of the light chain (limits as in the source). Parent: KSSQSVLYESRNKNSVA, WASTRES, QQYHRLPLS.
Kd is apparent (estimated from mating counts) and averaged on the log scale over replicates with a signal. Smaller is tighter.

CDR-L1	CDR-L2	CDR-L3	group	Kd	replicates with signal
MVTQMAMTGMKNKRSVA	NATTRET	QQYHRLPLI	En_Gen	25 nM	6/6
RMNKFMSGATEAKNSVA	GAEHRAQ	QSYHRLPLS	En_Gibbs	5.0 nM	6/6
KFSGVKEMVNKDQESIA	DAHTMQE	QQYSRLPLA	En_Gibbs	4.7 nM	6/6
TIGMFMDNLMQNRNNVA	DTSTLGS	QSYDRLPLS	En_Gen	13 nM	6/6
KMPQSVLYESRNKNSVA	DASTRES	QQYHRLPLS	GP_Gen	920 pM	6/6
KLSQSVMYESRNKNSVA	HASTRES	QQYHRLPLS	GP_Gen	580 pM	6/6
VLSDTIENWADEADNIA	DATETSG	QQYYRLPLS	En_Gibbs	230 nM	4/6
KLSQSCLYESRNKNSVA	EASTRLS	QQYHRLPLS	GP_Gen	1.8 nM	6/6
KSSISCLYESENKNSVA	EASQRES	QQYHRLPLS	GP_HC	8.2 nM	6/6
KLPQATMQESVSKNSVA	ELSTRGS	QQYHRLPLS	En_HC	6.5 nM	6/6
QIFFNDFQYRIESQNIA	QGSMREV	QQYARLPLV	En_Gibbs	7.7 nM	6/6
HLMQSVLYESRNKNSVA	HASLRED	QQYHRLPLS	GP_HC	2.0 nM	6/6
ALSMSELMESRNWNSVA	HANTREE	QQYHRLPLS	GP_Gibbs	640 pM	6/6
KLSQSVMMESRNKNSVA	NASTRES	QQYHRLPLS	GP_Gen	450 pM	6/6
NLVGRVPDNYTERNAIA	DMHCRAG	QQYERLPLS	En_Gibbs	130 nM	6/6
KVSQSVLYESRNKNSVA	NASTREA	QQYHRLPLS	GP_Gen	370 pM	6/6
KVSQSHLYESRNKNSVA	DASTRES	QSYHRLPLS	GP_Gen	470 pM	6/6
KLEQSVNYESRNKNSVA	NASTRES	QQYHRLPLS	GP_HC	440 pM	6/6
KSLQSWLYESRNFNSVA	HASTRED	QQYHRLPLS	GP_HC	1.8 nM	4/6
KVQYQLAYSQAHTNNVA	DASVVCA	QQYQRLPIG	En_Gibbs	6.4 nM	6/6
KSLQSVPYESRNKNSVA	HASTRED	QQYHQLPLS	GP_HC	820 pM	6/6
KLSMMYQHTSRMKNNIA	ERSTREE	QQYHHLPLS	En_HC	27 nM	6/6
HSSWGVDDESRNDNSVA	DASTRES	QQYHRLPLS	GP_Gibbs	1.0 nM	6/6
KLEQSVLYEQRNKNSVA	NASTRMS	QQYHRLPLS	GP_Gen	420 pM	6/6
KLSQSVGYESRNKNNVA	DASTRES	QQYHRLPLS	GP_Gen	410 pM	6/6
IVSQLMMWGMHAKNSIA	EAVTRIN	QQYDRLPLI	En_Gen	81 nM	4/6
KIDGQRSYQDGRERAIA	DANIRQR	QQYNRLPLV	En_Gibbs	960 pM	6/6
KLKYQADQYGMQWNNVA	HADIRAP	QQYNKLPLN	En_Gibbs	2.6 nM	6/6
KVSQENLYESRNKNSVA	DASTRES	QQYHRLPLS	GP_HC	420 pM	6/6
KLEQSTLYESRNKNSVA	NASTRSS	QQYHRLPLS	GP_HC	1.0 nM	6/6
KVSQSVLYESRNKNSVA	HASTRCS	QQYHRLPLS	GP_Gen	1.4 nM	6/6
KLSTSVLYESRNKNSVA	GASTRES	QQYHRLPLS	GP_Gen	360 pM	6/6
KLQQSVPYESRNKNSVA	NASTRED	QQYHRLPLS	GP_Gen	910 pM	6/6
KFSQSWGMESRNKNQVA	NASTRMS	QQYHRLPLS	GP_Gibbs	2.6 nM	6/6
KSSESVQMESRNKNSVA	WASTRES	QQYHRLPLS	Ctrl	15 nM	6/6
KSSQSVFYESRNKNSVA	GASTRLS	QQYHRLPLS	Ctrl	10 nM	6/6
KHSLSVELESRLKNSVA	EASTRCE	QQYHRLPLS	GP_Gibbs	4.0 nM	6/6
KSSQSVLYESSNKNSVA	NASTRES	QQYHRLPLS	Ctrl	80 nM	6/6
KLSDTIEKMASNADNIA	DETETNM	QQYYTLPLS	En_Gibbs	47 nM	6/6
KLSQSVQYEDRNKNSVA	NASQRES	QQYHRLPLS	GP_Gen	700 pM	6/6
KLQWSWLYESRNWNSVA	DASQRES	QQYHRLPLS	GP_Gibbs	1.1 nM	6/6
KIGHGLTTESRNRNSVA	QTETRVE	QHYHRLPLS	En_HC	240 nM	4/6
MLSSVLHMLGVKKNSIA	DLVLRAN	QQYARLPLM	En_Gen	45 nM	1/6
KSSESVLQESRNKNSVA	WASTRES	QQYHRLPLS	Ctrl	44 nM	1/6
MISQLYNMGQFAINSVA	QATLRNE	QQYDRLPLM	En_Gen	100 nM	5/6
KASQSVLFESRNKNSVA	DASFRES	QQYHRLPLS	GP_HC	1.3 nM	6/6
KIPQSYLGEWRNFNSVA	NASQRES	QQYHRLPLS	GP_Gibbs	540 pM	6/6

Repeated from above, the 3 best binders with a signal in all replicates:

| CDR-L1 | CDR-L2 | CDR-L3 | group | Kd | replicates with signal |
|---|---|---|---|---|---|
| KLSTSVLYESRNKNSVA | GASTRES | QQYHRLPLS | GP_Gen | 360 pM | 6/6 |
| KVSQSVLYESRNKNSVA | NASTREA | QQYHRLPLS | GP_Gen | 370 pM | 6/6 |
| KLSQSVGYESRNKNNVA | DASTRES | QQYHRLPLS | GP_Gen | 410 pM | 6/6 |

The authors' rule: three or more of the six replicates give a measured affinity, fewer mean a poor binder.
Background: pairings of all light chain designs with three empty control strains gave a value in 4% of cases (median 430 nM, 5th percentile 38 nM). Values in that range, when seen in few replicates, are hard to tell from nonspecific mating.
The range of this assay differs from that of the first round, and the authors advise against merging the two.
The parent sequence was in this pool as ten entries: three were never detected, three once, and four in most replicates, with averages from 2.2 nM to 240 nM.

Values reported by Li et al. 2023, doi:10.1038/s41467-023-39022-2 (FLAb copy).